## Antibody variant affinities, Ab-14 light chain, assay B

Data: MIT Lincoln Laboratory AlphaSeq set, Li et al. 2023, doi:10.1038/s41467-023-39022-2, as distributed in FLAb.

The target is the same throughout: PDVDLGDISGINAS, from the HR2 region of SARS-CoV-2 spike.

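Phage display of a naive human antibody library on the peptide gave the parent. The variants were designed computationally from a first round of random CDR variants and then made and measured. Several design methods are mixed in this list. In AlphaSeq, yeast of one mating type display the scFv and yeast of the other type display the target. After mating in shaken culture at 30 °C for 16 h, diploids were selected and their barcode pairs sequenced. The ratio of observed to expected reads was calibrated, replicate by replicate, on BCL2-family standards whose Kd was known from biolayer interferometry. There are six technical replicates.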

Ab-14 is the parent antibody, in scFv form: VH, then a (GGGGS)3 linker, then VL. The heavy chain is unchanged in all variants.
VH: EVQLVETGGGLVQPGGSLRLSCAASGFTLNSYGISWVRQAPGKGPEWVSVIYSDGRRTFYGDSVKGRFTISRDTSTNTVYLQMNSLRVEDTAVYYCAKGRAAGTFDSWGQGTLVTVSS
VL: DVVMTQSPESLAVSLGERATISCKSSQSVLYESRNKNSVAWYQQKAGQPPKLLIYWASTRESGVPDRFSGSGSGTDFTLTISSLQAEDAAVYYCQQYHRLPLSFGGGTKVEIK

Each variant is given by its three light chain CDRs, as the data file delimits them; those of the parent are KSSQSVLYESRNKNSVA, WASTRES, QQYHRLPLS.
Variants here have more than six changes.
Scale: log10 of Kd in nM, estimated from mating counts; low values are strong binders.
Replicates are averaged; those with no signal do not enter the mean.
"nd" marks a missing value. The strain was present, yet no cells mated with the target were sequenced in that replicate, which points to weak or no binding.
Nonspecific signal, from three strains lacking the peptide, appeared in 4% of pairings of all light chain designs, centred on 2.64 (5% of these signals below 1.59); values are not corrected for it. The control count says in how many pairings with the empty strains this scFv gave a signal, with their mean in brackets.
A sequence measured in both rounds can read differently, since the two assays cover different ranges.
The authors' rule: three or more of the six replicates give a measured affinity, fewer mean a poor binder.

| CDR-L1 | CDR-L2 | CDR-L3 | log10 Kd (nM) by replicate | mean log10 Kd (nM) | empty controls |
|---|---|---|---|---|---|
| KIQQSGLGEERNFNSVA | HASTRIS | QQYHRLPLS | 0.77 0.66 0.77 0.42 0.33 0.79 | 0.62 | 0/18 |
| TISGIMQQMSHSKNNVA | EVSMRLD | QQYFRLPLE | 1.22 0.45 1.37 1.28 0.84 1.15 | 1.05 | 0/18 |
| KLHQSWLYLSRNHNSVA | NASQRCS | QQYHRLPLS | 0.59 0.55 0.58 0.28 0.83 0.67 | 0.58 | 1/18 (3.14) |
| KLSGVMRMESKVSNSIA | EVNERPK | QQYDRLPLS | 1.28 1.51 1.93 1.84 1.63 1.82 | 1.67 | 0/18 |
| KLREVQHVESKQKNNVA | DNSTRES | QDYYRLPLS | nd nd 3.21 nd nd nd | 3.21 | 0/18 |
| KLMWSVMLESRNKNSVA | QASTRMS | QQYHRLPLS | 0.83 0.88 0.59 0.66 0.79 0.62 | 0.73 | 1/18 (3.91) |
| KLYVSTMLESHDKNSIA | DLSTRGN | QQYHRLPLS | 1.55 0.85 1.03 1.12 1.30 0.63 | 1.08 | 1/18 (2.63) |
| TISQMPSLFSQSINNVA | EVSTREP | QQYDRLPLI | 0.24 1.48 1.23 0.46 1.42 2.20 | 1.17 | 0/18 |
| SISGFMKSLSAHINNVA | DMTNRED | QQYDRLPLM | 0.16 0.31 0.81 0.10 -0.05 -0.24 | 0.18 | 0/18 |
| LIMKFMSQLGSARNNIA | GDTKLAQ | QAYYRLPLS | nd nd nd nd nd nd | nd | 1/18 (1.84) |
| KIGMTLNQLMEKKNNVA | DLVEREN | QQYFRLPLS | 0.53 -0.25 -0.25 -0.13 -0.19 -0.08 | -0.06 | 0/18 |
| HTQHLGFGDPAWANSIA | ERSQVCA | QQYFRLPLI | 0.91 1.08 0.78 0.88 1.18 0.79 | 0.94 | 0/18 |
| MISSISSMGQFAKNSVA | QASIRNS | QQYDRLPLI | nd 1.26 nd 2.00 nd 2.24 | 1.83 | 0/18 |
| MLSDLMKYGSRNKNPIA | NASTREY | QQYHRLPLE | 2.56 2.49 3.18 2.11 1.72 1.76 | 2.30 | 1/18 (2.57) |
| KLQQSWEYESRNKNNVA | MGSQRED | QQYHRLPLS | 1.06 1.72 1.16 0.39 0.80 0.91 | 1.01 | 0/18 |
| KLLGQNLQNMDKLNSIA | DQSVHYE | QQYWHLPFT | 1.06 0.81 0.40 0.72 0.40 0.67 | 0.68 | 0/18 |
| HLEQSELYESRMKNSVA | NASTRLS | QQYHRLPLS | -0.14 -0.13 -0.27 -0.39 -0.15 -0.21 | -0.21 | 0/18 |
| MIGEMLMQGQYIRNSVA | QANIRAQ | QHYNRLPLE | nd nd nd nd nd nd | nd | 0/18 |
| IVSQLMLWGMHATNSIA | EAQTRLN | QQYDRLPLL | nd 1.04 nd 2.97 nd nd | 2.00 | 0/18 |
| KVSEFMRGLMMRKDSIA | DNVTRSK | QQYDRLPLS | 1.69 nd nd nd 1.44 nd | 1.57 | 1/18 (1.32) |
| KLSTSVMLESRNVNSVA | DASTRSE | QQYHRLPLS | -0.08 -0.12 -0.35 -0.15 -0.09 -0.02 | -0.14 | 0/18 |
| KFEPSWLYESRNVNSVA | NASQRSD | QQYHRLPLS | 0.29 0.28 0.04 0.34 0.17 0.34 | 0.24 | 1/18 (3.07) |
| KQSQSFLYESRNSNSVA | DASQREQ | QQYHRLPLM | -0.21 -0.19 -0.33 -0.53 -0.16 -0.13 | -0.26 | 0/18 |
| HLAESAHMESRNKNSVA | DNSTRES | QHYDRLPLS | nd 2.29 0.97 2.74 3.57 2.62 | 2.44 | 2/18 (3.06) |
| KIGGVTNGISRNKNSVA | EQSRRED | QQYNRLPLS | -0.03 -0.23 0.14 0.02 0.09 -0.08 | -0.02 | 1/18 (1.35) |
| HISMMVGTKGYAKNSVA | NEETRED | QQYHRLPLS | 0.04 -0.42 -0.34 -0.63 -0.34 -0.24 | -0.32 | 0/18 |
| MISGSVMSESRLKNSVA | QTTTRES | QQYDRLPLS | nd 1.44 nd 1.95 1.40 1.39 | 1.54 | 0/18 |
| MLSQMWALGSKVKNSVA | QASMRFN | QQYDRLPLI | 2.21 2.63 1.52 1.70 1.52 2.27 | 1.98 | 0/18 |
| KISQMTNFESTHINAVA | QMSTREE | QQYFRLPLS | 0.68 0.05 0.26 0.24 0.07 0.51 | 0.30 | 0/18 |
| TISQLHNMGTFAINSVA | QAEIRNA | QQYDRLPLA | 0.53 0.40 0.39 -0.09 0.45 0.59 | 0.38 | 0/18 |
| KIGHGLTTEQRNRNSVA | QTETRVS | QHYHRLPLS | 1.09 1.64 0.88 1.62 0.99 1.62 | 1.31 | 0/18 |
| ALSDWEWAGEENINAVA | DRSALEW | QQYGRLPLS | 1.61 1.53 1.46 1.57 1.64 1.95 | 1.63 | 3/18 (2.73) |
| KLSSTAETEHVNRNSVA | ELVTRMK | QQYNRLPLS | 1.05 0.45 0.81 0.34 0.59 0.81 | 0.67 | 1/18 (1.70) |
| KLSMVTGHMSMAKNNVA | EMVTREE | QQYNRLPLS | 0.31 0.14 0.00 0.13 0.13 0.26 | 0.16 | 2/18 (2.77) |
| TISQSLMMQTSHKNSVA | GEETRYS | QQYHRLPLS | 0.93 0.32 0.75 0.49 1.48 0.64 | 0.77 | 0/18 |
| AAQQSELYEDRNQNSVA | SASQRLS | QQYHRLPLS | 0.36 0.46 -0.11 0.23 0.22 0.34 | 0.25 | 0/18 |
| KLEQSAWLESRNFNAVA | SASQREL | QQYHRLPLS | 0.91 0.81 0.97 0.94 1.04 0.93 | 0.93 | 2/18 (3.65) |
| KFEVSMLYESRNGNSVA | QASTRSS | QQYHRLPLS | 0.14 -0.47 -0.06 -0.18 -1.00 -0.61 | -0.36 | 0/18 |
| KLSLSMSYSHEGTRHIA | NGSNRCI | QQYHRLPLI | 2.06 nd nd 2.42 3.99 nd | 2.82 | 2/18 (2.79) |
| KLAMHMEMNARTNHHIA | EANLKPS | QQYNRLPFS | 0.67 0.43 0.95 0.55 0.81 0.61 | 0.67 | 3/18 (3.26) |
| NFSQMVLTGSTLRNSVA | HANTRFE | QQYHRLPLI | 0.24 -0.08 0.03 1.40 1.50 0.33 | 0.57 | 0/18 |
| ELRMKELGMSYNANNVA | DSENRIK | QQYYRLPLM | 1.87 1.06 2.45 1.85 1.53 2.20 | 1.83 | 1/18 (2.39) |
| MMSQMFEGLSTKKNPVA | QVSTREE | QQYHRLPLS | 0.86 0.96 0.87 1.41 1.08 1.39 | 1.10 | 1/18 (1.58) |
| KMETHSQDNRLDISAIA | EAQTIYQ | QQYARLPLS | 1.51 1.28 1.65 1.91 1.41 1.66 | 1.57 | 2/18 (2.72) |
| QLATEVHDNAKLRNSIA | ENELRAM | QQYLMLPLS | 0.23 0.40 0.40 0.01 0.23 0.31 | 0.26 | 1/18 (3.55) |
| SVQNYTENFMERGQNIA | DASAKTV | QQYDRLPLA | 1.24 1.15 0.96 1.00 1.08 0.96 | 1.07 | 1/18 (3.77) |
| MISQLYNFGQFAINSVA | QASQRNA | QQYDRLPLM | nd nd nd nd nd nd | nd | 0/18 |

The last 4 entries again:

| CDR-L1 | CDR-L2 | CDR-L3 | log10 Kd (nM) by replicate | mean log10 Kd (nM) | empty controls |
|---|---|---|---|---|---|
| KMETHSQDNRLDISAIA | EAQTIYQ | QQYARLPLS | 1.51 1.28 1.65 1.91 1.41 1.66 | 1.57 | 2/18 (2.72) |
| QLATEVHDNAKLRNSIA | ENELRAM | QQYLMLPLS | 0.23 0.40 0.40 0.01 0.23 0.31 | 0.26 | 1/18 (3.55) |
| SVQNYTENFMERGQNIA | DASAKTV | QQYDRLPLA | 1.24 1.15 0.96 1.00 1.08 0.96 | 1.07 | 1/18 (3.77) |
| MISQLYNFGQFAINSVA | QASQRNA | QQYDRLPLM | nd nd nd nd nd nd | nd | 0/18 |